Values of other authors, collected in patent publication US20080269167A1, “Preparation Comprising Iron(III) Complex Compounds And Redox-Active Substance(s)” (VIFOR (INTERNATIONAL) AG, priority 2005, published 2008).

Details: 3 mg of Fe from maize porridge meal, cited from earlier work

Substance: iron(III) hydroxide
- absorption of Fe (with addition of 100 mg of ascorbic acid): 10.5%
- absorption of Fe (without ascorbic acid): 0.4%

Read-outs that look alike come from different tables or passages of the source.
